Source: patent publication US11253506B2, “Compounds, compositions and methods for preventing and/or treating chlorine inhalation toxicity and/or injury” (dated 2022)

Experiments:
[1] = system: animals exposed to toxic inhalational levels of chlorine; assay: Ability of therapeutic agents to stabilize and/or rescue animals exposed to toxic inhalational levels of chlorine; conditions: for ability to stabilize and/or rescue animals exposed to toxic inhalational levels of chlorine: in some cases even worsened the animal's overall condition; for effects on animals exposed to high inhalational levels of chlorine: in vivo
[2] = system: rats exposed to chlorine gas; assay: Oxygen saturation, respiratory rate and clinical distress scoring after chlorine inhalation
[3] = system: rats exposed to chlorine gas; assay: Arterial blood gas and blood chemistry after chlorine inhalation
[4] = system: rats exposed to chlorine gas; assay: Survival after massive chlorine inhalation
[5] = system: rats exposed to chlorine gas; assay: Observational neuromuscular/ataxia scoring after chlorine inhalation; conditions: scopolamine, severe chlorine exposure
[6] = system: rats exposed to chlorine gas; assay: Heart rate, cardiac output, stroke volume and pulmonary artery pressure after chlorine inhalation (cardiac catheterization); conditions: scopolamine, severe chlorine exposure
[7] = scopolamine, severe chlorine exposure

racemic epinephrine
ability to stabilize and/or rescue animals exposed to toxic inhalational levels of chlorine [1]: ineffective

COc1ccccc1OCC(O)CN1CCN(CC(=O)Nc2c(C)cccc2C)CC1 (stereo not shown)
ability to stabilize and/or rescue animals exposed to toxic inhalational levels of chlorine [1]: ineffective

manganese(III)meso-tetrakis(N,N′-diethyl-1,3-imidazolium-2-yl)porphyrin
ability to stabilize and/or rescue animals exposed to toxic inhalational levels of chlorine [1]: ineffective

inhaled nitric oxide
ability to stabilize and/or rescue animals exposed to toxic inhalational levels of chlorine [1]: ineffective

CN1[C@@H]2C[C@@H](OC(=O)[C@H](CO)c3ccccc3)C[C@H]1C1OC12 (stereo partly shown)
SpO2 [2, 7]: does not improve | ABG (arterial blood gas) [3, 7]: improved | survival to 6 hours ([4]; scopolamine, route variation study, severe chlorine exposure): improved | ataxia and seizure activity [5]: decreases | heart rate [6]: does not improve | effects on animals exposed to high inhalational levels of chlorine [1]: beneficial effects

COc1ccccc1Oc1c(NS(=O)(=O)c2ccc(C(C)(C)C)cc2)nc(-c2ncccn2)nc1OCCO
mortality ([4]; bosentan after massive chlorine inhalation): increased mortality | ability to stabilize and/or rescue animals exposed to toxic inhalational levels of chlorine [1]: ineffective

CN1[C@@H]2CC[C@H]1C[C@@H](OC(=O)C(CO)c1ccccc1)C2 (stereo partly shown)
effects on animals exposed to high inhalational levels of chlorine [1]: beneficial effects

sodium bicarbonate
ability to stabilize and/or rescue animals exposed to toxic inhalational levels of chlorine [1]: ineffective

CC(CCc1ccc(O)cc1)NCCc1ccc(O)c(O)c1 (stereo not shown)
ability to stabilize and/or rescue animals exposed to toxic inhalational levels of chlorine [1]: ineffective

2-pyridine aldoxime methyl chloride
oxygen saturation ([2]; 2-PAM after LD60-75 chlorine): no effect | blood acidosis values (pH, paCO2, lactate) ([3]; 2-PAM addition to atropine): no improvement | blood cyanide levels ([3]; after 2-PAM IM 40 mg/kg with atropine in chlorine-exposed rats): undetectable | time to death after dosing (n=5) ([4]; 2-PAM IM 40 mg/kg with atropine after chlorine, n=1 survived to 1 hour): ≤ 10 min | ability to stabilize and/or rescue animals exposed to toxic inhalational levels of chlorine [1]: ineffective

cobinamide
ability to stabilize and/or rescue animals exposed to toxic inhalational levels of chlorine [1]: ineffective

O=[N+]([O-])c1nccn1CC(O)CN1CCCCC1 (stereo not shown)
ability to stabilize and/or rescue animals exposed to toxic inhalational levels of chlorine [1]: ineffective
